Protein sequences, listed by entry. Tags and fused reporters are not part of them. Residues count along the entry.
UniProt Q13547, whole entry: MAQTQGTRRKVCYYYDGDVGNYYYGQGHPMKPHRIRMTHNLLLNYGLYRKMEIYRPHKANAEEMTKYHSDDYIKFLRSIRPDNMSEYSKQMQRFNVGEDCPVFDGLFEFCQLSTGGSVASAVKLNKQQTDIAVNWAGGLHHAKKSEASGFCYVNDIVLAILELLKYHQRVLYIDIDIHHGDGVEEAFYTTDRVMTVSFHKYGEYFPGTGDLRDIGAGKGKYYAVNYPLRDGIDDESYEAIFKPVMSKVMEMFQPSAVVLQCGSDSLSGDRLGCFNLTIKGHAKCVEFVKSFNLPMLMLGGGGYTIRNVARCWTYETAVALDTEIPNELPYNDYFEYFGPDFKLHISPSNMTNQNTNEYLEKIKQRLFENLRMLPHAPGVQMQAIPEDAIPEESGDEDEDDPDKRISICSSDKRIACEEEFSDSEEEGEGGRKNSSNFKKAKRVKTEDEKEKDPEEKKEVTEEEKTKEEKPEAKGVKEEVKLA
UniProt Q92769, whole entry: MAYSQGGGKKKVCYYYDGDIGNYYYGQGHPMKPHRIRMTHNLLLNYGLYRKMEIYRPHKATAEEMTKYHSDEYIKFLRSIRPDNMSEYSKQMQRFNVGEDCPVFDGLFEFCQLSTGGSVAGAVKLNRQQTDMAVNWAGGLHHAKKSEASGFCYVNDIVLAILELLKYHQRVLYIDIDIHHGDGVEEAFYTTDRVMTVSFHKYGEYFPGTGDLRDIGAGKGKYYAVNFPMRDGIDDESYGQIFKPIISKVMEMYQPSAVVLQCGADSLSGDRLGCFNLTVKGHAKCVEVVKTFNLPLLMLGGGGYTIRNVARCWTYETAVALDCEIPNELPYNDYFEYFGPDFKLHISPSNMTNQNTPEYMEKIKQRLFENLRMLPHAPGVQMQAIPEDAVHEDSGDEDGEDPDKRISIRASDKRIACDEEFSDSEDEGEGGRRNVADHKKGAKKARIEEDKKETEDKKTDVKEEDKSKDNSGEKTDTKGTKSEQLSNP
UniProt O15379, whole entry: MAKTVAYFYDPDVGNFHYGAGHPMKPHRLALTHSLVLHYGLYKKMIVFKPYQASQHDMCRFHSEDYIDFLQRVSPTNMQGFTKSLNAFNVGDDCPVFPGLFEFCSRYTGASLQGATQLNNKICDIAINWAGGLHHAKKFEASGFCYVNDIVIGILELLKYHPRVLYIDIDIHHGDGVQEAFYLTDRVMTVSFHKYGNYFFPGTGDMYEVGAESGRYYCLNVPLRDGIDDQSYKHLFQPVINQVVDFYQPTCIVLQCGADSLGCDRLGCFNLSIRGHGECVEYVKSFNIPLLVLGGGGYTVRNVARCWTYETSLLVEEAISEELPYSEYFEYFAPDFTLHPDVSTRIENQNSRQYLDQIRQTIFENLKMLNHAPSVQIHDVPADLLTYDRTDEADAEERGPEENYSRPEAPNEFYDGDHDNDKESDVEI
UniProt Q9BY41, whole entry: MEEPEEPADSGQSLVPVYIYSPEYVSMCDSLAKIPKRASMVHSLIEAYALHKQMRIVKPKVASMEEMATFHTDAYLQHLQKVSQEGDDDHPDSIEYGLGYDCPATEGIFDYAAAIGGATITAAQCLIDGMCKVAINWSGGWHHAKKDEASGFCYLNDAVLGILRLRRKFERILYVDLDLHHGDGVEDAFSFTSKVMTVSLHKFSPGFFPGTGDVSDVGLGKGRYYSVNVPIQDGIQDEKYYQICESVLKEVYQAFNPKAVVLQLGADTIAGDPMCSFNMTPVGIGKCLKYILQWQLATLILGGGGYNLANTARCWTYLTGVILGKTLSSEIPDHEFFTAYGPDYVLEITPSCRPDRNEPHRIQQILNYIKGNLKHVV
UniProt Q9Y618, 389-480 partner limits assumed: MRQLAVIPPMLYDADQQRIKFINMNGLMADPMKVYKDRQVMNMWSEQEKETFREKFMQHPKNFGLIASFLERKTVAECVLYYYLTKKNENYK

According to PMC7782793, “Hydroxamic acid-modified peptide microarrays for profiling isozyme-selective interactions and inhibition of histone deacetylases” (Nature Communications, 2021):

Columns and labels:
Test in all cases: Recombinant HDAC µSPOT microarray binding assay;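 for Bottom Value: peptide µSPOT slides incubated with varying HDAC enzyme concentrations, imaged signal intensity fitted by four-parameter variable-slope regression, EC50 is enzyme concentration giving half-maximal binding, pH 7.4 HEPES buffer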;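 for Top Value: peptide µSPOT slides incubated with varying HDAC enzyme concentrations, imaged signal intensity fitted by four-parameter variable-slope regression, EC50 is enzyme concentration giving half-maximal binding, pH 7.4 HEPES buffer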
HDAC1 = HDAC1 (Homo sapiens, UniProt Q13547); conditions: H4 K12X (X = Asuha) peptides; for Bottom / HillSlope / Top: dose-response fit parameter; for LogEC50 (M): log of EC50 in M, dose-response fit;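 for Bottom: relative spot intensity from the six enzyme-concentration slides imaged together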;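 for Top: relative spot intensity from the six enzyme-concentration slides imaged together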;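 for all read-outs here: slides with spotted peptides incubated with six HDAC concentrations in HEPES buffer pH 7.4, spot intensities fitted by four-parameter logistic, EC50 as enzyme concentration giving half-maximal binding signal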
HDAC2 = HDAC2 (Homo sapiens, UniProt Q92769); conditions: H4 K12X (X = Asuha) peptides; for Bottom / HillSlope / Top: dose-response fit parameter; for LogEC50 (M): log of EC50 in M, dose-response fit;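 for Bottom: relative spot intensity from the six enzyme-concentration slides imaged together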;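 for Top: relative spot intensity from the six enzyme-concentration slides imaged together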;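 for all read-outs here: Cellulose-bound peptide spots on slides incubated with six HDAC enzyme concentrations, binding intensity read, four-parameter variable-slope fit, EC50 is enzyme concentration giving half-maximal binding, in HEPES buffer pH 7.4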
HDAC3/NCoR2 = HDAC3/NCoR2 (Homo sapiens, UniProt O15379); conditions: H4 K12X (X = Asuha) peptides; for Bottom / Top / HillSlope: dose-response fit parameter; for LogEC50 (M): log of EC50 in M, dose-response fit;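 for all read-outs here: peptide spots on cellulose slides incubated with rising HDAC enzyme concentrations, imaged together, four-parameter logistic fit, EC50 is enzyme concentration giving half-maximal binding signal, two experiments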
HDAC8 = HDAC8 (Homo sapiens, UniProt Q9BY41); conditions: for Bottom / HillSlope / Top: dose-response fit parameter; for Bottom Value / Top Value: HDAC8, Fig. 5a, X = Asuha;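 for all read-outs here: peptide µSPOT slides incubated with varying HDAC enzyme concentrations, imaged signal intensity fitted by four-parameter variable-slope regression, EC50 is enzyme concentration giving half-maximal binding, pH 7.4 HEPES buffer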
[1] = µSPOT microarray, H4 K12X (X = Asuha) peptides, HDAC8

| Bottom (HDAC1) | HillSlope (HDAC1) | Top (HDAC1) | LogEC50 (M) (HDAC1) | Bottom (HDAC2) | HillSlope (HDAC2) | Top (HDAC2) | Bottom (HDAC3/NCoR2) | Top (HDAC3/NCoR2) | Bottom (HDAC8; [1]) | HillSlope (HDAC8; [1]) | Top (HDAC8; [1]) | HillSlope (HDAC3/NCoR2) | LogEC50 (M) (HDAC3/NCoR2) | Bottom Value (HDAC8) | Top Value (HDAC8) | LogEC50 (M) (HDAC2) | LogEC50 (M) (HDAC8; log of EC50 in M, dose-response fit, µSPOT microarray, H4 K12X (X = Asuha) peptides, HDAC8) | Compound |
| --- | --- | --- | --- | --- | --- | --- | --- | --- | --- | --- | --- | --- | --- | --- | --- | --- | --- | --- |
| 0.04 | 0.76 | 1.08 | -7.56 | -0.11 | 0.21 | 2.7 | 0.03 | 0.7 | 0.15 | 8.56 | 0.64 |  |  |  |  |  |  | CC(C)C[C@H](NC(=O)[C@@H](NC(=O)[C@H](CCCCN)NC(=O)[C@H](CCCNC(=N)N)NC(=O)[C@H](Cc1cnc[nH]1)NC(=O)[C@H](CCCNC(=N)N)NC(=O)[C@H](CCCCN)NC(=O)[C@H](C)NC(=O)CNC(=O)CNC(=O)[C@H](CCCCCC(=O)NO)NC(=O)CNC(=O)[C@H](CC(C)C)NC(=O)CNC(=O)[C@@H](N)CCCCN)C(C)C)C(=O)O |
| 0.01 |  | 261.81 |  | 0.08 | 1.65 | 0.72 | 0.04 |  | 0.08 | 0.35 | 52.59 | 1.98 | -8.8 |  |  |  |  | CC(C)C[C@H](NC(=O)CNC(=O)[C@H](CCCCN)NC(=O)CNC(=O)CNC(=O)[C@@H](N)CCCCN)C(=O)NCC(=O)N[C@@H](CCCCCC(=O)NO)C(=O)NCC(=O)NCC(=O)N[C@@H](C)C(=O)N[C@@H](CCCCN)C(=O)N[C@@H](CCCNC(=N)N)C(=O)O |
| 0.1 | 1.97 | 0.93 | -7.84 | -0.16 | 0.14 | 194.96 | 0.07 |  | 0.23 | 2 | 0.75 | 2 |  |  |  |  |  | CC(C)C[C@H](N)C(=O)NCC(=O)N[C@@H](CCCCCC(=O)NO)C(=O)NCC(=O)NCC(=O)N[C@@H](C)C(=O)N[C@@H](CCCCN)C(=O)N[C@@H](CCCNC(=N)N)C(=O)N[C@@H](Cc1cnc[nH]1)C(=O)N[C@@H](CCCNC(=N)N)C(=O)O |
|  |  |  |  |  |  |  |  |  |  |  |  |  |  | 0.05 | 1 |  |  | C[C@H](N)C(=O)N[C@@H](CCCNC(=N)N)C(=O)N[C@H](C(=O)N[C@@H](CCCCN(C)C)C(=O)N[C@@H](CCC(N)=O)C(=O)N[C@H](C(=O)N[C@@H](C)C(=O)N[C@@H](CCCNC(=N)N)C(=O)N[C@@H](CCCCCC(=O)NO)C(=O)N[C@@H](CO)C(=O)N[C@H](C(=O)NCC(=O)NCC(=O)N[C@@H](CCCCN)C(=O)N[C@@H](C)C(=O)N1CCC[C@H]1C(=O)O)[C@@H](C)O)[C@@H](C)O)[C@@H](C)O |
| 0.07 | 1.89 | 0.9 | -7.76 | 0.19 | 2.19 | 0.8 | 0.11 |  | 0.15 |  |  |  | -8.82 |  |  | -8.6 | -8.56 | CC(C)C[C@H](NC(=O)CNC(=O)[C@H](CCCCN)NC(=O)CNC(=O)CNC(=O)[C@H](CCCCN)NC(=O)CNC(=O)[C@@H](N)CCCNC(=N)N)C(=O)NCC(=O)N[C@@H](CCCCCC(=O)NO)C(=O)NCC(=O)NCC(=O)N[C@@H](C)C(=O)N[C@@H](CCCCN)C(=O)N[C@@H](CCCNC(=N)N)C(=O)O |
| 0.03 |  | 233.36 |  | 0.02 | 5.93 | 0.22 | 0.02 | 1 | 0.02 | 2.99 | 0.29 | 1.03 | -8.2 |  |  |  |  | CC(C)C[C@H](NC(=O)CNC(=O)[C@H](CCCCN)NC(=O)CNC(=O)CNC(=O)[C@@H](N)CCCCN)C(=O)NCC(=O)N[C@@H](CCCCCC(=O)NO)C(=O)NCC(=O)NCC(=O)N[C@@H](C)C(=O)O |
| 0.01 |  | 5.12 |  | 0.09 | 0.89 | 0.74 | 0.01 |  | 0.14 | 4.6 | 0.6 | 1.2 | -8.64 |  |  |  |  | CC(C)C[C@H](NC(=O)[C@@H](NC(=O)[C@H](CCCCN)NC(=O)[C@H](CCCNC(=N)N)NC(=O)[C@H](Cc1cnc[nH]1)NC(=O)[C@H](CCCNC(=N)N)NC(=O)[C@H](CCCCN)NC(=O)[C@H](C)NC(=O)CNC(=O)CNC(=O)[C@H](CCCCCC(=O)NO)NC(=O)CNC(=O)[C@@H](N)CC(C)C)C(C)C)C(=O)N[C@@H](CCCNC(=N)N)C(=O)N[C@@H](CC(=O)O)C(=O)O |
|  |  |  |  |  |  |  |  |  |  |  |  |  |  | 0.06 | 1 |  |  | C[C@H](N)C(=O)N[C@@H](CCCNC(=N)N)C(=O)N[C@H](C(=O)N[C@@H](CCCC[N+](C)(C)C)C(=O)N[C@@H](CCC(N)=O)C(=O)N[C@H](C(=O)N[C@@H](C)C(=O)N[C@@H](CCCNC(=N)N)C(=O)N[C@@H](CCCCCC(=O)NO)C(=O)N[C@@H](CO)C(=O)N[C@H](C(=O)NCC(=O)NCC(=O)N[C@@H](CCCCN)C(=O)N[C@@H](C)C(=O)N1CCC[C@H]1C(=O)O)[C@@H](C)O)[C@@H](C)O)[C@@H](C)O |
|  |  |  |  |  |  |  |  |  |  |  |  |  |  | 0.07 | 0.99 |  |  | C[C@H](N)C(=O)N[C@@H](CCCNC(=N)N)C(=O)N[C@H](C(=O)N[C@@H](CCCC[N+](C)(C)C)C(=O)N[C@@H](CCC(N)=O)C(=O)N[C@H](C(=O)N[C@@H](C)C(=O)N[C@@H](CCCNC(=N)N)C(=O)N[C@@H](CCCCCC(=O)NO)C(=O)N[C@@H](CO)C(=O)N[C@H](C(=O)NCC(=O)NCC(=O)N[C@@H](CCCCN)C(=O)N[C@@H](C)C(=O)N1CCC[C@H]1C(=O)O)[C@@H](C)O)[C@@H](C)O)[C@@H](C)OP(=O)(O)O |
| 0.08 | 1.22 | 0.93 | -7.75 | -0.86 | 0.13 | 1.39 | 0.02 |  | 0.28 | 2 | 0.57 | 0.71 | -8.31 |  |  |  |  | CC(C)C[C@H](NC(=O)CNC(=O)[C@H](CCCCN)NC(=O)CNC(=O)CN)C(=O)NCC(=O)N[C@@H](CCCCCC(=O)NO)C(=O)NCC(=O)NCC(=O)N[C@@H](C)C(=O)N[C@@H](CCCCN)C(=O)N[C@@H](CCCNC(=N)N)C(=O)N[C@@H](Cc1cnc[nH]1)C(=O)N[C@@H](CCCNC(=N)N)C(=O)O |
| 0.02 | 0.67 | 1.01 | -7.57 | 0.15 | 0.77 | 0.9 | -0.12 |  | 0.29 | 2 | 0.72 | 0.27 |  |  |  | -7.86 |  | C[C@H](NC(=O)CNC(=O)CNC(=O)[C@@H](N)CCCCCC(=O)NO)C(=O)N[C@@H](CCCCN)C(=O)N[C@@H](CCCNC(=N)N)C(=O)N[C@@H](Cc1cnc[nH]1)C(=O)N[C@@H](CCCNC(=N)N)C(=O)O |
| 0.03 | 0.67 | 0.97 | -7.31 | 0.04 | 0.45 | 1.7 | -0.01 |  | 0.15 | 2 | 0.43 | 0.55 |  |  |  |  |  | CC(C)C[C@H](NC(=O)CN)C(=O)NCC(=O)N[C@@H](CCCCCC(=O)NO)C(=O)NCC(=O)NCC(=O)N[C@@H](C)C(=O)N[C@@H](CCCCN)C(=O)N[C@@H](CCCNC(=N)N)C(=O)N[C@@H](Cc1cnc[nH]1)C(=O)N[C@@H](CCCNC(=N)N)C(=O)O |
|  |  |  |  |  |  |  |  |  |  |  |  |  |  | 0.04 |  |  |  | C[C@H](N)C(=O)N[C@@H](CCCNC(=N)N)C(=O)N[C@H](C(=O)N[C@@H](CCCCN)C(=O)N[C@@H](CCC(N)=O)C(=O)N[C@H](C(=O)N[C@@H](C)C(=O)N[C@@H](CCCNC(=N)N)C(=O)N[C@@H](CCCCCC(=O)NO)C(=O)N[C@@H](CO)C(=O)N[C@H](C(=O)NCC(=O)NCC(=O)N[C@@H](CCCCN)C(=O)N[C@@H](C)C(=O)N1CCC[C@H]1C(=O)O)[C@@H](C)O)[C@@H](C)O)[C@@H](C)O |

| Compound | Bottom (HDAC1) | HillSlope (HDAC1) | Top (HDAC1) | LogEC50 (M) (HDAC1) | Bottom (HDAC2) | HillSlope (HDAC2) | Top (HDAC2) | Bottom (HDAC3/NCoR2) | Top (HDAC3/NCoR2) | Bottom (HDAC8; [1]) | HillSlope (HDAC8; [1]) | Top (HDAC8; [1]) | HillSlope (HDAC3/NCoR2) | LogEC50 (M) (HDAC3/NCoR2) | Bottom Value (HDAC8) | Top Value (HDAC8) | LogEC50 (M) (HDAC2) | LogEC50 (M) (HDAC8; log of EC50 in M, dose-response fit, µSPOT microarray, H4 K12X (X = Asuha) peptides, HDAC8) |
| --- | --- | --- | --- | --- | --- | --- | --- | --- | --- | --- | --- | --- | --- | --- | --- | --- | --- | --- |
| CC(C)C[C@H](NC(=O)CNC(=O)[C@H](CCCCN)NC(=O)CNC(=O)CNC(=O)[C@@H](N)CCCCN)C(=O)NCC(=O)N[C@@H](CCCCCC(=O)NO)C(=O)NCC(=O)NCC(=O)N[C@@H](C)C(=O)N[C@@H](CCCCN)C(=O)N[C@@H](CCCNC(=N)N)C(=O)N[C@@H](Cc1cnc[nH]1)C(=O)O [A11] | 0.02 |  | 1.76 |  | 0.11 | 0.85 |  | 0.07 |  | 0.2 | 10.91 |  | 5.85 | -8.89 |  |  | -8.07 |  |
